Laboratory results reported in publication PMC11062922 (Nature Chemical Biology, 2023).

Legend:
Parameters in all cases: species or system human
[1] = test system: CSNK1A1; assay: Kinobeads competition binding: CSNK1A1; details: target CSNK1A1
[2] = test system: LIMK2; assay: Kinobeads competition binding: LIMK2; details: target LIMK2
[3] = test system: NLK; assay: Kinobeads competition binding: NLK; details: target NLK;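 also: selectivity score: engagement of this protein divided by summed engagement of all targets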
[4] = test system: EIF2AK1; assay: Kinobeads competition binding: EIF2AK1; details: target EIF2AK1;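 also: share of total target engagement due to this protein at one drug concentration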
[5] = test system: PKMYT1; assay: Kinobeads competition binding: PKMYT1; details: target PKMYT1
[6] = test system: ICK; assay: Kinobeads competition binding: ICK; details: target ICK
[7] = test system: CLK2; assay: Kinobeads competition binding: CLK2; details: target CLK2
[8] = test system: MYLK3; assay: Kinobeads competition binding: MYLK3; details: target MYLK3;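 also: share of all-target engagement taken by this protein at its own Kdapp concentration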
[9] = test system: MST1R; assay: Kinobeads competition binding: MST1R; details: target MST1R;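 also: selectivity score: engagement of this protein divided by summed engagement of all targets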
[10] = test system: IRAK1; assay: Kinobeads competition binding: IRAK1; details: target IRAK1
[11] = test system: MAP4K1; assay: Kinobeads competition binding: MAP4K1; details: target MAP4K1
[12] = test system: MARK2; assay: Kinobeads competition binding: MARK2; details: target MARK2
[13] = test system: NEK2; assay: Kinobeads competition binding: NEK2; details: target NEK2
[14] = test system: GSPT1;GSPT2; assay: Kinobeads competition binding: GSPT1;GSPT2; details: target GSPT1;GSPT2
[15] = test system: CDK9; assay: Kinobeads competition binding: CDK9; details: target CDK9
[16] = test system: MAPK10; assay: Kinobeads competition binding: MAPK10; details: target MAPK10
[17] = test system: ADRBK1; assay: Kinobeads competition binding: ADRBK1; details: target ADRBK1
[18] = test system: MAP2K6; assay: Kinobeads competition binding: MAP2K6; details: target MAP2K6
[19] = test system: IGF1R; assay: Kinobeads competition binding: IGF1R; details: target IGF1R;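 also: selectivity score: engagement of this protein divided by summed engagement of all targets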
[20] = test system: NEK3; assay: Kinobeads competition binding: NEK3; details: target NEK3
[21] = test system: FLT3; assay: Kinobeads two-dose competition binding: FLT3; details: target FLT3
[22] = test system: MAP3K4; assay: Kinobeads competition binding: MAP3K4; details: target MAP3K4;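 also: target engagement share of this target among all targets at its Kdapp concentration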
[23] = test system: MARK4; assay: Kinobeads competition binding: MARK4; details: target MARK4
[24] = test system: MAP2K4; assay: Kinobeads competition binding: MAP2K4; details: target MAP2K4
[25] = test system: MAPK1; assay: Kinobeads competition binding: MAPK1; details: target MAPK1
[26] = test system: LYN; assay: Kinobeads competition binding: LYN; details: target LYN
[27] = test system: DDR1; assay: Kinobeads competition binding: DDR1; details: target DDR1
[28] = test system: MAPK8; assay: Kinobeads competition binding: MAPK8; details: target MAPK8
[29] = test system: MTOR; assay: Kinobeads competition binding: MTOR; details: target MTOR

Measured: CATDS

CN(C)C/C=C/C(=O)Nc1cc2c(Nc3ccc(F)c(Cl)c3)ncnc2cc1O[C@H]1CCOC1 [Afatinib]
0: all assays above
